Values quoted from earlier work, collected in patent US20220125844A1 (priority 2020, published 2022).

Test system: primary human natural killer (NK) cells
Settings: in vitro, cells preincubated with opioid; cited from earlier work

## CN(C(=O)Cc1ccc(Cl)c(Cl)c1)[C@@H]1CCCC[C@H]1N1CCCC1
  primary human NK cell cytotoxicity after preincubation with opioid: reduced
